Laboratory results taken from US20260207621A1 (Vividion Therapeutics, Inc., priority 2022, published 2026).

Amino acid sequences for entries named in this document (tags omitted).
UniProt Q14145, whole entry: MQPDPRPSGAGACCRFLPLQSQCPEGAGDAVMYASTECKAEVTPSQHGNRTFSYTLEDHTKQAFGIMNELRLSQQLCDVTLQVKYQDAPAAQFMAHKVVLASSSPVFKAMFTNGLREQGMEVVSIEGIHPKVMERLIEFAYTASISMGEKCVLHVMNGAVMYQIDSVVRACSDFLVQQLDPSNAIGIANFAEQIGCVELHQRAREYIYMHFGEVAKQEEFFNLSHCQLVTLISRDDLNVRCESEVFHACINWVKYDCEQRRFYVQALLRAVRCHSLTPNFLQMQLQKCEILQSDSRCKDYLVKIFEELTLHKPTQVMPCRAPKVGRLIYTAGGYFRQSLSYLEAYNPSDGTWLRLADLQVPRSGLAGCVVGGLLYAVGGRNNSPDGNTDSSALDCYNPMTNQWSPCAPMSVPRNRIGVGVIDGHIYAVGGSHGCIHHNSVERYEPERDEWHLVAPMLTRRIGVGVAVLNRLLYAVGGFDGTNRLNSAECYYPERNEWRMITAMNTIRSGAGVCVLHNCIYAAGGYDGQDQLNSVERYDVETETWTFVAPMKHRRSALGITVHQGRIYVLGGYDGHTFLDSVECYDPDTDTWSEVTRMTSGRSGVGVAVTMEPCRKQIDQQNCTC

Assays:
[1] = molecular target: KEAP1 C151 (Homo sapiens, UniProt Q14145); experiment: Nrf2 TMT measurement: in vitro TE50 for KEAP1 C151 (IA-DTB competition, targeted TMT mass spectrometry) in MDA-MB-468 cell lysate; type: binding; settings: read-out: KEAP1_C151 TE50, in vitro target engagement of KEAP1 C151, targeted TMT
[2] = tested on: Nrf2; experiment: Nrf2 antagonism assay: ARE luciferase reporter in KYSE-70 cells; settings: positive Imax corresponds to Nrf2 antagonism
Source text: NRF2 binds to a promoter region, antioxidant response element (ARE), to initiate expression of multiple genes. ARE luciferase reporter assays are used to test whether a ligand can activate or repress the expression of target genes using luciferase as a reporter gene.
KYSE-70 is an esophageal squamous cell carcinoma cell line with a Nrf2 mutation at amino acid position W24C. This mutation lowers the affinity between the E3 ligase that includes KEAP1 and Nrf2, resulting in a state in which the synthesis rate of new Nrf2 is faster than the E3's degradation rate of Nrf2, resulting in a “Nrf2 high” state. In KYSE-70 cells, genes are inserted directly after the ARE that trigger the expression of luciferase. Without a NRF2 antagonist in this modified KYSE70 cell line which has an inherently “NRF2 high state”, luciferase is expressed, and a signal is observed.
Nrf2 antagonists bind at C151 of KEAP1 and stabilize the E3 which results in an increased degradation rate of Nrf2. Increased degradation of Nrf2 results in less expression of luciferase, and therefore a less intense signal.
An IC50 is generated from the dose-response curve and an Imax. A positive Imax corresponds to Nrf2 antagonism. Imax >90% correlates with in vivo tumor grown inhibition. Compounds with Imax >50% were included in this description.

Row | SMILES | IC50 [1] [µM] | KYSE70 Cellular ARE Luciferase Imax (%) [2] [%]
1 | C=CC(=O)N1C[C@@](C)(O)CC[C@@H]1c1cc(Cl)cc(-c2ncc(N)cn2)c1 | 1.36 | 88
2 | C=CC(=O)N1CCOCC1c1cc(Cl)cc(-c2coc(N)n2)c1 (single isomer, unassigned) | 0.051 | 78
3 | C=CC(=O)N1C[C@](C)(O)CC[C@@H]1c1cc(Cl)cc(-c2ncc(N)cn2)c1 | 0.077 | 83
